Experiments:
Details in all cases: antagonist
NK1 = NK1 (Homo sapiens, UniProt P25103); assay: Signal transduction (ST), intracellular Ca++ (FLIPR), functional NK1 antagonistic activity
Experimental: (§1) This test evaluates in vitro functional NK1 antagonistic activity. For the measurements of intracellular Ca^++ concentrations the cells were grown on 96-well (black wall/transparent bottom) plates from Costar for 2 days until they reached confluence. The cells were loaded with 2 μM Fluo3 in DMEM containing 0.1% BSA and 2.5 mM probenecid for 1 h at 37° C. They were washed 3× with a Krebs buffer (140 mM NaCl, 1 mM MgCl2×6H2O, 5 mM KCl, 10 mM glucose, 5 mM HEPES; 1.25 mM CaCl2; pH 7.4) containing 2.5 mM probenecid and 0.1% BSA (Ca^++-buffer). The cells were preincubated with a concentration range of antagonists for 20 min at RT and Ca^++-signals after addition of the agonists were measured in a Fluorescence Image Plate Reader (FLIPR from Molecular Devices, Crawley, England). The peak of the Ca^++-transient was considered as the relevant signal and the mean values of corresponding wells were analysed as described below.
(§2) The sigmoidal dose response curves were analysed by computerised curve-fitting, using the GraphPad Program. The EC50-value of a compound is the effective dose showing 50% of maximal effect. For mean curves the response to the agonist with the highest potency was normalised to 100%. For antagonist responses the IC50-value was calculated using non-linear regression.
(§3) The last columns indicate—without being limited thereto—for which action the compounds might be most suitable. Of course, since for some neurokinin receptors no data was determined, it is obvious that these compounds might be attributed to another suitable use.

Sequences of proteins named here, by UniProt entry; tags and fusion partners are left off.
UniProt P25103, whole entry: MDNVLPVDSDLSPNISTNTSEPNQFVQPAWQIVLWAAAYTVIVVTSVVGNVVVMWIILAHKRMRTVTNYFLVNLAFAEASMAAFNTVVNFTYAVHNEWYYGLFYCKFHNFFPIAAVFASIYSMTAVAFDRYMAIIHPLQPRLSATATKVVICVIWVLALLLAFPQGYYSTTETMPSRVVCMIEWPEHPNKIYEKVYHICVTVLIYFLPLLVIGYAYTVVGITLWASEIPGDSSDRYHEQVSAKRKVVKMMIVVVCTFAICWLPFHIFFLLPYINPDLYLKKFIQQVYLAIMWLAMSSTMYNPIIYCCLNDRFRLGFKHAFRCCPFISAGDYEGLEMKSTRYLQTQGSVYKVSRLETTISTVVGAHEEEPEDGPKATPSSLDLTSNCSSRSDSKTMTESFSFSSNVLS
UniProt P29371, whole entry: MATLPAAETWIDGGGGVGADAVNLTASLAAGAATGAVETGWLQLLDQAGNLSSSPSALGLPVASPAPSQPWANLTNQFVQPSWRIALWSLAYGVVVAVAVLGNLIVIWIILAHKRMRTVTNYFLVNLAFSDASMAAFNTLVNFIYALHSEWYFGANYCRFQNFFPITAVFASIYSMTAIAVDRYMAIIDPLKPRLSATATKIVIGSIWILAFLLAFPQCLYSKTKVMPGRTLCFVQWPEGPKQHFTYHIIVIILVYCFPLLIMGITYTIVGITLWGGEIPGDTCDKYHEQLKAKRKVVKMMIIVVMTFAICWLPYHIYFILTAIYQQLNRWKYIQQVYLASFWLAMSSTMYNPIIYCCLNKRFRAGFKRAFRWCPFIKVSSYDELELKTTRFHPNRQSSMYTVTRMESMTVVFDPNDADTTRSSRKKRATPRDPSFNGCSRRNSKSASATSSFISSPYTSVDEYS
UniProt P21452, whole entry: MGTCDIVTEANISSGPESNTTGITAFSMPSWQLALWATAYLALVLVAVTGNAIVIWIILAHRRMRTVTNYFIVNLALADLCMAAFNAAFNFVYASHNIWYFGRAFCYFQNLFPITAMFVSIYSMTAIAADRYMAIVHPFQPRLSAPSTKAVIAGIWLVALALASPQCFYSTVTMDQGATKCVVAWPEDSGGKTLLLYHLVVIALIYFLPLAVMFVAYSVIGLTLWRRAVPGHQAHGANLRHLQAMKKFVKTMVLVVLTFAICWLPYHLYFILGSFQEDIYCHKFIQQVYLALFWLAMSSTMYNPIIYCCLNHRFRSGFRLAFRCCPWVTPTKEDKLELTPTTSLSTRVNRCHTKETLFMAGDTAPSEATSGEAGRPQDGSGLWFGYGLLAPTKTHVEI

NK3 = NK3 (Homo sapiens, UniProt P29371); assay: Signal transduction (ST), intracellular Ca++ (FLIPR), NK3
Experimental: [The source words this procedure for another target and reports this target under the same test.] as §1, §2, §3

NK2 = NK2 (Homo sapiens, UniProt P21452); assay: Signal transduction (ST), intracellular Ca++ (FLIPR), NK2
Experimental: [The source words this procedure for another target and reports this target under the same test.] as §1, §2, §3

NK1 pIC50 (NK1) | NK3 pIC50 (NK3) | NK2 pIC50 (NK2) | Compound
7.44 | <5 | 5.75 | O=C1CC[C@H](C(=O)N2CCC3(CC2)CCN([C@H]2CCN(C(=O)c4cc(C(F)(F)F)cc(C(F)(F)F)c4)[C@H](Cc4ccccc4)C2)CC3)N1
6.97 | <5 | <5 | CCC=C(C)C(=O)N1CCC2(CC1)CCN(C1CCN(C(=O)c3cc(C(F)(F)F)cc(C(F)(F)F)c3)C(Cc3ccccc3)C1)CC2 (stereo not drawn)
6.67 | ~5.51 | 5.19 | O=C1CC2(CCN1CC1CC1)CCN([C@@H]1CCN(C(=O)c3cc(C(F)(F)F)cc(C(F)(F)F)c3)[C@H](Cc3ccccc3)C1)CC2
6.41 | <5 | 5.22 | CC(=CC(=O)N1CCC2(CC1)CCN(C1CCN(C(=O)c3cc(C(F)(F)F)cc(C(F)(F)F)c3)C(Cc3ccccc3)C1)CC2)c1ccccc1 (stereo not drawn)
